Experimental data reported in patent US10457637B2, “Benzenesulfonamide derivatives as inverse agonists of retinoid-related orphan receptor gamma (RORγ(T))” (GALDERMA RESEARCH & DEVELOPMENT, priority 2014, dated 2019).

Test system: IL-17A secretion by CD4+ cells
Assay: IL-17A secretion by CD4+ cells (HTRF)
Assay type: cell-based
Conditions: 96 h; human CD4+ cells activated with anti-CD3 and anti-CD28, 4 days of incubation; read-out: IC50 hCD4/IL17
Description: This model allows measurement of the effect of inhibitors on IL-17A secretion by CD4+ cells. […] The amount of IL-17a secreted is measured by the TR-FRET (kit HTRF® Human Interleukin 17A (Cisbio, #64H17PEC)) technology.
The cells are rapidly thawed, resuspended in their culture medium (RPMI inactivated 10% FCS) supplemented with soluble anti-CD28 antibodies and seeded (100 000 cells/well) in 96-well plates precoated with anti-CD3 antibodies. The cells are then treated with the ranges of inhibitors to be tested (from 1000 nM to 0.05 nM, 0.1% DMSO). […] The IC50 values are calculated from a 4-parameter logistic model using the XLFit software (IDBS).

| Compound | IC50 [nM] |
| --- | --- |
| CCc1ccc(N(CC(C)C)S(=O)(=O)c2ccc(SCC3CCOCC3)c(CO)c2)cc1 [compound 21, N-(4-ethylphenyl)-3-hydroxymethyl-N-isobutyl-4-(tetrahydropyran-4-ylmethylsulfanyl)benzenesulfonamide] | < 100 |
| CCc1ccc(N(CC(C)C)S(=O)(=O)c2ccc(OCC3CCOCC3)c(S(C)(=O)=O)c2)cc1 [compound 24, N-(4-ethylphenyl)-N-isobutyl-3-methanesulfonyl-4-(tetrahydropyran-4-ylmethoxy)benzenesulfonamide] | < 100 |
| CCc1ccc(N(CC(C)C)S(=O)(=O)c2ccc(N3CCN(C(C)=O)CC3)c(S(C)(=N)=O)c2)cc1 (stereo not drawn) [compound 63, 4-(4-acetylpiperazin-1-yl)-N-(4-ethylphenyl)-N-isobutyl-3-(S-methylsulfonimidoyl)benzenesulfonamide] | > 1000 |
